From publication PMC8294944 (Journal of agricultural and food chemistry, 2020)

Sequences of proteins named here, by UniProt entry; tags and fusion partners are left off.
UniProt Q92731, whole entry: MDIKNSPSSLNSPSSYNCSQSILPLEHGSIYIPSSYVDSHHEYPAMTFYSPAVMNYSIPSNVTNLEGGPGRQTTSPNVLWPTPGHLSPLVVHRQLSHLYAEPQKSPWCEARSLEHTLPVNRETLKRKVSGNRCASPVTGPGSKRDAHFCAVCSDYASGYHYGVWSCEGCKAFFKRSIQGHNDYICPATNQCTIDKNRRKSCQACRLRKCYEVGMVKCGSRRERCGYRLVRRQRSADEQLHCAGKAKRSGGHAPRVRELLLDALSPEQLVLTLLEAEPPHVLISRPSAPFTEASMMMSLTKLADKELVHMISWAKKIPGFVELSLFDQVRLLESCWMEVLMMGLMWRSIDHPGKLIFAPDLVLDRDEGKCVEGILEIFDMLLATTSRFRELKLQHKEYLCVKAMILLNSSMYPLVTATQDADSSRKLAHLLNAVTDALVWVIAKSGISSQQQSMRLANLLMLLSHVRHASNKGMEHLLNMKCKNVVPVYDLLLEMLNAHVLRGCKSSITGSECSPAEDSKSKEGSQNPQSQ

Biological target: purified full length human recombinant ERβ (Homo sapiens, UniProt Q92731)
Experiment: ERβ competitive binding assay

RBA β/α: 2.7
Compound: CC(C)=CCc1c(O)cc(O)c2c(=O)cc(-c3ccc(O)cc3)oc12 [8-PA, 8-Prenylapigenin]
